Target: Free fatty acid receptor 1 (Homo sapiens, UniProt O14842)
Experiment: Agonist activity at human GPR40 expressed in HEK293 cells assessed as increase in intracellular Ca2+ flux by FLIPR assay relative to linoleic acid
Assay type: functional, cell-based

The chains behind the UniProt entries cited, without tags or fusion partners.
UniProt O14842, whole entry: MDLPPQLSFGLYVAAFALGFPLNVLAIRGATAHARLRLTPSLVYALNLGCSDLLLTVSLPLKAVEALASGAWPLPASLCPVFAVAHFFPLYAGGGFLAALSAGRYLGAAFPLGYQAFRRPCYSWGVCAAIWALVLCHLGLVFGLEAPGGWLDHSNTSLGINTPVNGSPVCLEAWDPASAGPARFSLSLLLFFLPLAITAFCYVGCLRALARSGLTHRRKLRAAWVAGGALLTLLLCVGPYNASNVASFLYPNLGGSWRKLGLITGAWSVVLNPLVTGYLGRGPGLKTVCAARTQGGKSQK

- Emax: 84%
Compound: CC#C[C@@H](CC(=O)O)c1ccc(OCc2ccc(CN3CCCc4cccc(OC)c43)s2)cc1

Source: ChEMBL document CHEMBL3867481, “GPR40 agonists for the treatment of type 2 diabetes mellitus: The biological characteristics and the chemical space” (Bioorg Med Chem Lett, 2016)
